Chains of the proteins cited; added tags and fusions are not shown.
UniProt P22411, whole entry: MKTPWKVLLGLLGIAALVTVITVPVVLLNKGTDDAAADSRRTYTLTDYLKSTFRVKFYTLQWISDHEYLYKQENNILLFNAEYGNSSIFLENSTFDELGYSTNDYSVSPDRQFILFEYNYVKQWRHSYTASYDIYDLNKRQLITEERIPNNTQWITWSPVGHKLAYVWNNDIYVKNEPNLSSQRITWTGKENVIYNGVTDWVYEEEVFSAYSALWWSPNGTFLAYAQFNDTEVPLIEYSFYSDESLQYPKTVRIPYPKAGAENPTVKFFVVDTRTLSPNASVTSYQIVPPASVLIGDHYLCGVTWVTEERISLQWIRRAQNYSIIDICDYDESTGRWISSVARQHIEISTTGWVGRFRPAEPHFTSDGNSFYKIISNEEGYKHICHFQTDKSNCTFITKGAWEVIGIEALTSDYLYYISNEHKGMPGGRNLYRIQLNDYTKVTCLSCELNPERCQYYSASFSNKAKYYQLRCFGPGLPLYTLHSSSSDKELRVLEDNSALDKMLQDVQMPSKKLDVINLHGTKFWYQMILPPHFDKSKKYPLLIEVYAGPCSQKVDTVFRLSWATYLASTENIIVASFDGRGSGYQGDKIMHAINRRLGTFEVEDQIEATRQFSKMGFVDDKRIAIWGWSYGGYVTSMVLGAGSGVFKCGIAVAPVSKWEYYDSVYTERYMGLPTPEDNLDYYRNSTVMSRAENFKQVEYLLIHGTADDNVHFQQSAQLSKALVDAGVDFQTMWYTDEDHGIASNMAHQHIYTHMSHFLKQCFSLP

In one assay the target is DPP-IV from porcine kidney (Sus scrofa, UniProt P22411). The experiment in a line: Measurement of the DPP-IV activity (fluorimetric H-Ala-Pro-AFC conversion). Particulars: DPP-IV 1 mU/ml; substrate H-Ala-Pro-AFC 15 μM; Tris/HCl 40 mM, pH 7.4; room temperature; tested form: bistrifluoroacetate. The procedure:
The activity of the compounds was assayed as follows:
Measurement of the DPP-IV activity:
DPP-IV from porcine kidney (Sigma, Munich)
H-Ala-Pro-AFC (Bachem, Weil am Rhein)
DPP-IV (1 mU/ml, final concentration)
H-Ala-Pro-AFC (15 μM, final concentration) in Tris/HCl (40 mM, pH 7.4), total volume 0.2 ml
The reaction was carried out at room temperature for various times (typically 10 min) and stopped at the end of the reaction by adding 20 μl of ZnCl2(1M). The H-Ala-Pro-AFC conversion was determined fluorimetrically by measuring the emission at 535 nm after excitation at 405 nm. When inhibitors were added, the added buffer volume was adapted so that a total volume of 200 μl was maintained for the assay mixture.
IC50 values for inhibitors were determined by varying the inhibitor concentrations with the stated substrate concentration of 15 μM. Ki and Km values were found by appropriate variation of substrate concentration and inhibitor concentration as described (Dixon, M. and Webb, E. C. (1979) Enzymes, third edition, pp. 47–206, Academic Press). The values for Km, IC50 and Ki were calculated using a commercially available software package (Leatherbarrow, R. J. (1992) GraFit Version 3.0, Erithacus Software Ltd. Staines, U.K.).
With `N#C[C@@H]1CS[C@H]2C[C@](N)(CC3CCNCC3)C(=O)N12`, the concentration for half-maximal inhibition (IC50) (commonly the concentration that gives 50% inhibition) is 500 nM.

As for `N#C[C@@H]1CS[C@H]2C[C@](N)(C3CCNCC3)C(=O)N12`, the IC50 was found to be 300 nM.

The assay is the same for the next values; noted with them: DPP-IV 1 mU/ml; substrate H-Ala-Pro-AFC 15 μM; Tris/HCl 40 mM, pH 7.4; room temperature; tested form: trifluoroacetate.
`N#C[C@@H]1CS[C@H]2C[C@@H](NC3CCCC3)C(=O)N12` registered an IC50 of 2000 nM. On to `N#C[C@@H]1CS[C@H]2C[C@](N)(CO)C(=O)N12`, for which the IC50 was 400 nM. This IC50 lies about 5-fold lower than the previous one. The compound `N#C[C@@H]1CS[C@H]2C[C@](N)(Cc3ccccc3)C(=O)N12.O=C(O)C(F)(F)F` registered an IC50 of 48 nM.

In turn, `CC(C)C[C@@]1(N)C[C@@H]2SC[C@@H](C#N)N2C1=O` gave an IC50 of 18 nM.

Turning to `N#C[C@@H]1CS[C@H]2C[C@@H](N)C(=O)N12`, the 50% inhibitory concentration (IC50) came out at 47 nM.

Values taken from US7008957B2, “Bicyclic cyanoheterocycles, process for their preparation and their use as medicaments” (Sanofi-Aventis Deutschland GmbH, priority 2003, dated 2006).
